Measurements as given in patent US20030036181A1.

Chains of the proteins cited; added tags and fusions are not shown. Residues count along the entry.
UniProt P23945, 18-695: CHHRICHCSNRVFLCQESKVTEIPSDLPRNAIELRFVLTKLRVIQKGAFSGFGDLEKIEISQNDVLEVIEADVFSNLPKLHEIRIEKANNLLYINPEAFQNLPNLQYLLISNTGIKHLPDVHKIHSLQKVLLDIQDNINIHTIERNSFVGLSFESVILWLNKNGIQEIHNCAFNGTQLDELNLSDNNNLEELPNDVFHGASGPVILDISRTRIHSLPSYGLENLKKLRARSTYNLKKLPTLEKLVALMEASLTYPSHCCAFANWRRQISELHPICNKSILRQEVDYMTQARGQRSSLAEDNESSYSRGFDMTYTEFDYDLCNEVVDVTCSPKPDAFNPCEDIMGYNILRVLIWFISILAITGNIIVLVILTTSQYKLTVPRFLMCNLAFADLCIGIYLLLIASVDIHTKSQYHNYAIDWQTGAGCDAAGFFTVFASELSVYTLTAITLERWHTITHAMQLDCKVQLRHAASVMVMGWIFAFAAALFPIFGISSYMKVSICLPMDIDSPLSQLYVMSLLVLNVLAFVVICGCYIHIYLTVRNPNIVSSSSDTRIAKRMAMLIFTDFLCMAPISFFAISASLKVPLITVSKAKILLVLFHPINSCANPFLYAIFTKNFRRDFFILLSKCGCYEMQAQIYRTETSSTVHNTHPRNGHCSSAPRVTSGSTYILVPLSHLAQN

Biological target: human FSH receptor, stably expressed on CHO K1 cells (CHO FSH-R/CRE-luc cell line) (human) (UniProt P23945)
Test: cell-based or functional assay

“FSH (preparation used to stimulate the CHO FSH-R/CRE-luc clone) (from UniProt P01215 25-116; P01225 19-129) (ligand)” was tested, and the EC50 of the luciferase signal upon stimulation with FSH (CHO FSH-R/CRE-luc clone) was 0.01 IU/ml.
